System: 5-HT2
Experiment: Binding test 5-HT2
Conditions: at 3.6 10^-5 M
Source text: Compounds A and Compounds B of the present invention, which are examples of endo-tropyl and quinuclidylamide of 7-azaindolyl-3-carboxylic acid respectively have been studied "in vitro" for their interaction with the 5-HT1, 5-HT2 and 5-HT3 receptors.
Binding Test: 5-HT1 5-HT2
% of inhibition at 3.6 10^-5 M

## Cc1nccn1CC1CCc2c(c3ccccc3n2C)C1=O (racemic) [Ondasetron, reference compound]
  % of inhibition 5-HT2: 21.7%
